This is an account of results in patent US20120207676.

By UniProt entry, the sequences of proteins in these tests, tags left out.
Neurotensin receptor NTS1 (HT29 cells/membranes) (human), P30989, UniProt P30989, whole entry: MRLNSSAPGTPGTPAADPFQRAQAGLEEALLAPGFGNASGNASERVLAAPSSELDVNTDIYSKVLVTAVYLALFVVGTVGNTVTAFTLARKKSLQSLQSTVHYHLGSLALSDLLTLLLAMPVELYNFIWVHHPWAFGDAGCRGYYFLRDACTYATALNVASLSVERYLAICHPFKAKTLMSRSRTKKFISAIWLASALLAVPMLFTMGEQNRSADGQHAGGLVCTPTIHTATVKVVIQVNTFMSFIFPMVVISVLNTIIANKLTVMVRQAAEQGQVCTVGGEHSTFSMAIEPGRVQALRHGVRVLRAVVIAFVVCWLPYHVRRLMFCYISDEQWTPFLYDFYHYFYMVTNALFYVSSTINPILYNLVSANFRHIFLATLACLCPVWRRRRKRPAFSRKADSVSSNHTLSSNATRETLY

Assay [1] deals with T1, Neurotensin receptor NTS1 (HT29 cells/membranes) (human), P30989. Put plainly: competition, HT29 cells. Particulars: modification not given.
The target in assay [2] is T1, Neurotensin receptor NTS1 (HT29 …). Nature of the assay: competition, HT29 membranes. To be noted: modification not given.

Turning to ELYENKPRRPYIL [[Lys6(DTPA(In))]-NT], the IC50 (as a rule, the concentration that gives 50% inhibition) in assay [1] was determined as 17.3 nM. The Ki (in general, the dissociation constant of the complex between target and ligand, obtained from inhibition or displacement) in assay [2] came to 1.77 nM.
